Values quoted from earlier work as cited in patent publication US10195284B2, “Compositions and methods for controlled localized delivery of bone forming therapeutic agents” (University of Rochester, priority 2013, dated 2019).

Details: mice, 20 mg/kg subcutaneous, cited from earlier work

For `C[C@@H]1CN(Cc2ccc(F)cc2)CCN1C(=O)COc1ccc(Cl)cc1NC(N)=O` [BX471], the peak serum concentration (30 minutes following injection) is given as 9 µM, the “reduction of serum concentration after 2 hours” value is given as “more than 20 fold” and the “serum concentration after 2 hours” value is given as 400 nM.
